Measurements reported in article doi:10.1101/2023.01.11.523589v2 (biorxiv, 2023).

The chains behind the UniProt entries cited, without tags or fusion partners.
UniProt P40337, whole entry: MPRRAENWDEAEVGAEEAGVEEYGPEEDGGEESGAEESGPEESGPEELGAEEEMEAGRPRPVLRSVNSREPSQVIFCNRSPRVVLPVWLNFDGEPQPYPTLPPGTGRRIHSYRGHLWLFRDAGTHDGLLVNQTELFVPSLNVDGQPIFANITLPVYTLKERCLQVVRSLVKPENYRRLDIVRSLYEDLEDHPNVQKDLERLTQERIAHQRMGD

Biological target: VHL (full-length, NanoLuc fusion) (Homo sapiens, UniProt P40337)
Experiment: NanoBRET tracer displacement, permeabilised HEK293T cells
Assay type: biochemical

IC50: 16.3 µM
SMILES: Cc1ncsc1-c1ccc(CNC(=O)[C@@H]2C[C@@H](O)CN2C(=O)[C@@H](NC(=O)Cc2ccc(CNC(=O)c3ccc(-c4ccc(N5CCN(C)CC5)c(NC(=O)c5c[nH]c(=O)cc5C(F)(F)F)c4)cc3)cc2)C(C)(C)C)cc1 [AD142]
